System: DLBCL in the brain (DLBCL Ly8 cell lines)
Test: In vivo treatment of DLBCL in the brain (Ly8 transplanted tumor model)
Settings: group later given i.p. 3 mg/kg once every two days

CN(Cc1cnc2nc(N)nc(N)c2n1)c1ccc(C(=O)N[C@@H](CCC(=O)O)C(=O)O)cc1 [methotrexate]
Weight (g) Before treatment: 18.93 ± 0.87 g
